Test results published in patent US8536168B2 (Novartis AG, priority 2007, dated 2013).
Like-named read-outs stand apart in the source and are kept apart here.

By UniProt entry, the sequences of proteins in these tests, tags left out. Residues count along the entry.
UniProt Q99835, 28-787 limits assumed: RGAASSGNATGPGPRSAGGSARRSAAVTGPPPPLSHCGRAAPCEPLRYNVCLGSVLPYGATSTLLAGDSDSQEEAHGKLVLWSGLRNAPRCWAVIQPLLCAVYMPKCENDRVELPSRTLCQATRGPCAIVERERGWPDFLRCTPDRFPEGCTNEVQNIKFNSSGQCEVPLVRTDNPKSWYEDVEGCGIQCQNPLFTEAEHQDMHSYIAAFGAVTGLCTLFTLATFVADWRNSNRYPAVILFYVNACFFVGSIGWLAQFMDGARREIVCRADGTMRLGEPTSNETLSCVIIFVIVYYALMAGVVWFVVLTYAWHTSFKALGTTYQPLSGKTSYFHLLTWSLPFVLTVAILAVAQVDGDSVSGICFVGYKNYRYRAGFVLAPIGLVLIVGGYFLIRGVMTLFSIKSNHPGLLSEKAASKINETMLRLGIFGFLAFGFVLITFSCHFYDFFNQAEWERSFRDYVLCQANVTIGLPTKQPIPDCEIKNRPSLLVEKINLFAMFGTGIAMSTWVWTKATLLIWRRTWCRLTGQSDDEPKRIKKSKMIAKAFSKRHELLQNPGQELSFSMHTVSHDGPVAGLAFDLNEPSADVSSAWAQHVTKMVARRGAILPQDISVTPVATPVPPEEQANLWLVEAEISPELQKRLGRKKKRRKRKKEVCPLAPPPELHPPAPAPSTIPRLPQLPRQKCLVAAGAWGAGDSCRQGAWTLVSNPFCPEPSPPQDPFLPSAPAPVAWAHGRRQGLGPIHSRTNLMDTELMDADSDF
UniProt P56726, 33-793 limits assumed: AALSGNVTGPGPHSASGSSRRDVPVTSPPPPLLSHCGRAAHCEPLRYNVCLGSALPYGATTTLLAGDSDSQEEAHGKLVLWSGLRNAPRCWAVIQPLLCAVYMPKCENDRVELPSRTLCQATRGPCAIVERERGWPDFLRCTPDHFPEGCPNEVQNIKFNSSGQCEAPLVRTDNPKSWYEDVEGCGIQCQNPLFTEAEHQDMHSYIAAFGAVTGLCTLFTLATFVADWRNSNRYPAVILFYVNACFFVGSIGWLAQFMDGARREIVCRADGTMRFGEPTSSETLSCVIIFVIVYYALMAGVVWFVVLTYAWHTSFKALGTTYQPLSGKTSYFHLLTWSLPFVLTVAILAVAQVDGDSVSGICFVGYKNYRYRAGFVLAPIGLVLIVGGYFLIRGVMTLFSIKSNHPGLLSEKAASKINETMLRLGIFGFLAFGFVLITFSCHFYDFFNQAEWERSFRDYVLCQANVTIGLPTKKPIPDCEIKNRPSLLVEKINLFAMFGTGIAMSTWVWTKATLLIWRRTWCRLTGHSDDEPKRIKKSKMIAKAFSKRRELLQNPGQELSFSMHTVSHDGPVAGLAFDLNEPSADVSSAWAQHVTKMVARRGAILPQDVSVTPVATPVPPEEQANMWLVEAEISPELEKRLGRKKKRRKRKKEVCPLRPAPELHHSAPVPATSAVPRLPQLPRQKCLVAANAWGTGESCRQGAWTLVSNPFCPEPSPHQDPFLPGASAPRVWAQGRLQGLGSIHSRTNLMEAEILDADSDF

How the values were obtained:
[1] = target: human Smoothened receptor (Homo sapiens, UniProt Q99835); test: Smo binding assay, displacement of radio-labeled smoothened agonist, filter binding format (human); conditions: read-out: Human Smo bdg., IC50, displacement of small molecule agonist of Smoothened
Text: A Smo binding assay was developed using radio-labeled smoothened agonist for compound competition. Table 9 lists the IC50 for displacement of a small molecule agonist of Smoothened determined in a filter binding format for the mouse and human Smoothened receptor.

[2] = target: mouse Smoothened receptor (Mus musculus, UniProt P56726); test: Smo binding assay, displacement of radio-labeled smoothened agonist, filter binding format (mouse); conditions: read-out: Mouse Smo bdg., IC50, displacement of small molecule agonist of Smoothened
Gli-luciferase activity = test: Reporter gene assay (RGA) in TMHh12 cells, antagonism of Gli-luciferase activity in the presence of a Smo agonist
[3] = read-out: RGA (1 nM Smo agonist) IC50, 1 nM small molecule Smo agonist
[4] = read-out: RGA (25 nM Smo agonist) IC50, 25 nM small molecule Smo agonist

Structure (SMILES)	IC50 [1]	IC50 [2]	IC50 (Gli-luciferase activity; [3])	IC50 (Gli-luciferase activity; [4])
COC(=O)c1ccc(CN2CCN(c3nnc(Cc4ccccc4)c4ccccc34)CC2)nc1	1000 to 10000 nM	1000 to 10000 nM	100 to 1000 nM	1000 to 10000 nM
OC1CN(Cc2ccc(N3CCN(c4nnc(Cc5ccccc5)c5ccccc45)CC3)nc2)C1	100 to 1000 nM	100 to 1000 nM	< 100 nM	100 to 1000 nM
Cc1cc(N2CCN(c3ccc(C(F)(F)F)cn3)CC2)nnc1Cc1ccc(F)cc1	< 100 nM	< 100 nM	< 100 nM	
